{"source": "patent US9737535B2", "about": "“Methods for treating cancer using TOR kinase inhibitor combination therapy comprising administering substituted pyrazino[2,3-b]pyrazines” (Signal Pharmaceuticals, LLC, priority 2014, dated 2017)", "experiment_in_all_cases": "Anti-proliferation assay (ATPLite), Chalice synergy score", "key": {"HCC-1500": {"system": "HCC-1500", "format": "cell-based", "design": "scale not given here", "excerpt": "(§1) Cells were thawed from a liquid nitrogen preserved state.\n(§2) The calculation for synergy score is provided below.\n(§3) If T≧V0:100*[1−(T−V0)/(V−V0)]"}, "BT-474": {"system": "BT-474", "format": "cell-based", "excerpt": "as §1, §2, §3"}, "Hs-578-T": {"system": "Hs-578-T", "format": "cell-based", "excerpt": "as §1, §2, §3"}, "MCF7": {"system": "MCF7", "format": "cell-based", "excerpt": "as §1, §2, §3"}, "MDA-MB-468": {"system": "MDA-MB-468", "format": "cell-based", "excerpt": "as §1, §2, §3"}, "BT-20": {"system": "BT-20", "format": "cell-based", "design": "scale not given here", "excerpt": "as §1, §2, §3"}, "HCC-1806": {"system": "HCC-1806", "format": "cell-based", "excerpt": "as §1, §2, §3"}, "HCC70": {"system": "HCC70", "format": "cell-based", "excerpt": "as §1, §2, §3"}, "MDA-MB-157": {"system": "MDA-MB-157", "format": "cell-based", "excerpt": "as §1, §2, §3"}, "MDA-MB-436": {"system": "MDA-MB-436", "format": "cell-based", "excerpt": "as §1, §2, §3"}, "HCC-1937": {"system": "HCC-1937", "format": "cell-based", "excerpt": "as §1, §2, §3"}, "MDA-MB-231": {"system": "MDA-MB-231", "format": "cell-based", "excerpt": "as §1, §2, §3"}, "HCC-1187": {"system": "HCC-1187", "format": "cell-based", "design": "scale not given here", "excerpt": "as §1, §2, §3"}, "BT-549": {"system": "BT-549", "format": "cell-based", "excerpt": "as §1, §2, §3"}, "HCC-1428": {"system": "HCC-1428", "format": "cell-based", "excerpt": "as §1, §2, §3"}, "MDA-MB-453": {"system": "MDA-MB-453"}, "[1]": {"conditions": "Compound 1 in combination with second active agent, MDA-MB-231, mean self-cross + 2σ threshold 2.61"}}, "note": "Where a name gives a salt, the structure may show the parent alone. Read-outs that look alike come from different tables or passages of the source.", "data": [{"compound": "CN(C)/N=N/c1[nH]cnc1C(N)=O", "note": "[Dacarbazine]", "values": [{"measurement": "Synergy score", "setting": "HCC-1500", "value": 1.21}, {"measurement": "Synergy score", "setting": "BT-474", "value": 0.71}, {"measurement": "Synergy score", "setting": "Hs-578-T", "value": 0.88}, {"measurement": "Synergy score", "setting": "MCF7", "value": 0.12}, {"measurement": "Synergy score", "setting": "MDA-MB-468", "value": 0.23}]}, {"compound": "Bleomycin Sulfate", "values": [{"measurement": "Synergy score", "setting": "BT-20", "value": 1.46}, {"measurement": "Synergy score", "setting": "HCC-1806", "value": 0.62}, {"measurement": "Synergy score", "setting": "HCC70", "value": 1.43}, {"measurement": "Synergy score", "setting": "MDA-MB-157", "value": 6.00}, {"measurement": "Synergy score", "setting": "MDA-MB-436", "value": 3.57}, {"measurement": "Synergy score", "setting": "MDA-MB-468", "value": 4.70}]}, {"compound": "O=c1[nH]cc(F)c(=O)[nH]1", "note": "[Fluorouracil]", "values": [{"measurement": "Synergy score", "setting": "HCC-1806", "value": 0.85}, {"measurement": "Synergy score", "setting": "HCC-1937", "value": 0.63}, {"measurement": "Synergy score", "setting": "Hs-578-T", "value": 1.50}, {"measurement": "Synergy score", "setting": "MDA-MB-231", "value": 0.35}, {"measurement": "Synergy score", "setting": "MDA-MB-468", "value": 0.60}]}, {"compound": "CC(C)C[C@H](NC(=O)[C@H](Cc1ccccc1)NC(=O)c1cnccn1)B(O)O", "note": "[Bortezomib]", "values": [{"measurement": "Synergy score", "setting": "BT-20", "value": 2.93}, {"measurement": "Synergy score", "setting": "HCC-1187", "value": 3.01}, {"measurement": "Synergy score", "setting": "HCC-1500", "value": 1.37}, {"measurement": "Synergy score", "setting": "BT-474", "value": 0.58}, {"measurement": "Synergy score", "setting": "BT-549", "value": 2.66}, {"measurement": "Synergy score", "setting": "HCC-1428", "value": 1.46}, {"measurement": "Synergy score", "setting": "HCC-1806", "value": 5.67}, {"measurement": "Synergy score", "setting": "Hs-578-T", "value": 2.20}, {"measurement": "Synergy score", "setting": "MCF7", "value": 1.77}, {"measurement": "Synergy score", "setting": "MDA-MB-231", "value": 1.28}, {"measurement": "Synergy score", "setting": "MDA-MB-436", "value": 3.90}, {"measurement": "Synergy score", "setting": "MDA-MB-468", "value": 4.83}]}, {"compound": "CN(Cc1cnc2nc(N)nc(N)c2n1)c1ccc(C(=O)N[C@@H](CCC(=O)O)C(=O)O)cc1", "note": "[Methotrexate]", "values": [{"measurement": "Synergy score", "setting": "HCC-1187", "value": 1.94}, {"measurement": "Synergy score", "setting": "HCC-1500", "value": 1.92}, {"measurement": "Synergy score", "setting": "BT-549", "value": 0.73}, {"measurement": "Synergy score", "setting": "HCC-1428", "value": 0.27}, {"measurement": "Synergy score", "setting": "HCC-1937", "value": 0.69}, {"measurement": "Synergy score", "setting": "HCC70", "value": 1.76}, {"measurement": "Synergy score", "setting": "MCF7", "value": 0.57}, {"measurement": "Synergy score", "setting": "MDA-MB-157", "value": 1.68}, {"measurement": "Synergy score", "setting": "MDA-MB-436", "value": 0.22}, {"measurement": "Synergy score", "setting": "MDA-MB-468", "value": 1.53}]}, {"compound": "CNC(=O)c1cc(Oc2ccc(NC(=O)Nc3ccc(Cl)c(C(F)(F)F)c3)cc2)ccn1", "note": "[Sorafenib]", "values": [{"measurement": "Synergy score", "setting": "HCC-1187", "value": 0.64}]}, {"compound": "O=C(Nc1cccc(Nc2ncc(Br)c(NCCc3c[nH]cn3)n2)c1)N1CCCC1", "note": "[BX-912]", "values": [{"measurement": "Synergy score", "setting": "MDA-MB-231; [1]", "value": 2.21}]}, {"compound": "CCN(CC)CCNC(=O)c1c(C)[nH]c(/C=C2\\C(=O)Nc3ccc(F)cc32)c1C", "note": "[Sunitinib Malate]", "values": [{"measurement": "Synergy score", "setting": "HCC-1500", "value": 0.20}, {"measurement": "Synergy score", "setting": "BT-474", "value": 0.47}, {"measurement": "Synergy score", "setting": "HCC-1937", "value": 0.28}, {"measurement": "Synergy score", "setting": "HCC70", "value": 2.39}, {"measurement": "Synergy score", "setting": "MDA-MB-436", "value": 0.92}]}, {"compound": "O=C(/C=C/c1cccnc1)NCCCCC1CCN(C(=O)c2ccccc2)CC1", "note": "[FK-866]", "values": [{"measurement": "Synergy score", "setting": "MDA-MB-157; Compound 1 in combination with second active agent, MDA-MB-157, mean self-cross + 2σ threshold 4.68", "value": 1.43}]}, {"compound": "NS(=O)(=O)OC[C@@H]1C[C@@H](n2ccc3c(N[C@H]4CCc5ccccc54)ncnc32)C[C@@H]1O", "note": "[MLN-4924]", "values": [{"measurement": "Synergy score", "setting": "MDA-MB-231; [1]", "value": 2.34}, {"measurement": "Synergy score", "setting": "MDA-MB-436; Compound 1 in combination with second active agent, MDA-MB-436, mean self-cross + 2σ threshold 1.91", "value": 1.43}]}, {"compound": "N[C@@H](Cc1ccc(N(CCCl)CCCl)cc1)C(=O)O", "note": "[Melphalan]", "values": [{"measurement": "Synergy score", "setting": "BT-20", "value": 0.16}, {"measurement": "Synergy score", "setting": "HCC-1187", "value": 3.43}, {"measurement": "Synergy score", "setting": "BT-474", "value": 0.64}, {"measurement": "Synergy score", "setting": "HCC-1806", "value": 0.24}, {"measurement": "Synergy score", "setting": "HCC-1937", "value": 1.13}, {"measurement": "Synergy score", "setting": "HCC70", "value": 1.34}, {"measurement": "Synergy score", "setting": "Hs-578-T", "value": 1.83}, {"measurement": "Synergy score", "setting": "MCF7", "value": 0.24}, {"measurement": "Synergy score", "setting": "MDA-MB-231", "value": 0.54}, {"measurement": "Synergy score", "setting": "MDA-MB-436", "value": 1.61}]}, {"compound": "C#Cc1cccc(Nc2ncnc3cc(OCCOC)c(OCCOC)cc23)c1", "note": "[Erlotinib Hydrochloride]", "values": [{"measurement": "Synergy score", "setting": "BT-20", "value": 9.18}, {"measurement": "Synergy score", "setting": "BT-549", "value": 1.78}, {"measurement": "Synergy score", "setting": "HCC-1937", "value": 4.10}, {"measurement": "Synergy score", "setting": "Hs-578-T", "value": 2.11}, {"measurement": "Synergy score", "setting": "MDA-MB-157", "value": 2.36}, {"measurement": "Synergy score", "setting": "MDA-MB-468", "value": 6.38}]}, {"compound": "CS(=O)(=O)CCNCc1ccc(-c2ccc3ncnc(Nc4ccc(OCc5cccc(F)c5)c(Cl)c4)c3c2)o1", "note": "[Lapatinib]", "values": [{"measurement": "Synergy score", "setting": "HCC-1187", "value": 2.35}, {"measurement": "Synergy score", "setting": "BT-549", "value": 0.98}, {"measurement": "Synergy score", "setting": "HCC-1806", "value": 5.01}, {"measurement": "Synergy score", "setting": "HCC-1937", "value": 3.59}, {"measurement": "Synergy score", "setting": "HCC70", "value": 8.14}, {"measurement": "Synergy score", "setting": "MDA-MB-157", "value": 1.54}]}, {"compound": "CCCCCOC(=O)Nc1nc(=O)n([C@@H]2O[C@H](C)[C@@H](O)[C@H]2O)cc1F", "note": "[Capecitabine]", "values": [{"measurement": "Synergy score", "setting": "HCC-1500", "value": 1.82}, {"measurement": "Synergy score", "setting": "BT-474", "value": 0.77}, {"measurement": "Synergy score", "setting": "BT-549", "value": 0.17}, {"measurement": "Synergy score", "setting": "HCC-1806", "value": 0.51}, {"measurement": "Synergy score", "setting": "MDA-MB-436", "value": 0.12}, {"measurement": "Synergy score", "setting": "MDA-MB-468", "value": 0.37}, {"measurement": "Synergy score", "setting": "MDA-MB-453", "value": 0.48}]}]}
